Test: LC/MS detection of tigecycline and its metabolites in humans, dogs and/or rats
Conditions: LC/MS of human serum, urine, feces and rat and dog plasma and urine

In the case of Hydroxy Tigecycline, the “Species in which detected” value is reported as “R, D, H”.
